Test results: patent US20220289848A1 (published 2022)
Positions count from the first letter of the chain named.

B1: PDL1c-E-LC (bispecific antibody)
heavy: not shown
light: EIVLTQSPATLSLSPGERATLSCRASENVGTYISWYQQKPGQAPRLLIYGASNRYTGIPARFSGSGSGTDFTLTISSLEPEDFAVYYCGESYGHLYTFGGGTKVEIKRTVAAPSVFIFPPSDEQLKSGTASVVCLLNNFYPREAKVQWKVDNALQSGNSQESVTEQDSKDSTYSLSSTLTLSKADYEKHKVYACEVTHQGLSSPVTKSFNRGECEPKSSDKTHTSPPSPEVQLVESGGGLVQPGGSLRLSCAASGRTFITYAIGWFRQAPGKGREFVSAISWSGSMTSYADSVKGRFTISRDNAKNTLYLQMNSLRPEDTAVYYCAAHRGAIAPIAQSVYTNWGQGTLVTVSS
B2: PDL1a-G15-LC (bispecific antibody)
heavy: not shown
light: EIVLTQSPATLSLSPGERATLSCRASENVGTYISWYQQKPGQAPRLLIYGASNRYTGIPARFSGSGSGTDFTLTISSLEPEDFAVYYCGESYGHLYTFGGGTKVEIKRTVAAPSVFIFPPSDEQLKSGTASVVCLLNNFYPREAKVQWKVDNALQSGNSQESVTEQDSKDSTYSLSSTLTLSKADYEKHKVYACEVTHQGLSSPVTKSFNRGECGGGGSGGGGSGGGGSEVQLVESGGGLVQPGGSLRLSCAASGRTFVTYGMGWFRQAPGKGREFVSAISWSGSMTSYGDSVKGRFTISRDNAKNTLYLQMNSLRPEDTAVYYCAAALGAVVYTTREPYTYWGQGTLVTVSS
B3: PDL1a-G15-LN (bispecific antibody)
heavy: not shown
light: EVQLVESGGGLVQPGGSLRLSCAASGRTFVTYGMGWFRQAPGKGREFVSAISWSGSMTSYGDSVKGRFTISRDNAKNTLYLQMNSLRPEDTAVYYCAAALGAVVYTTREPYTYWGQGTLVTVSSGGGGSGGGGSGGGGSEIVLTQSPATLSLSPGERATLSCRASENVGTYISWYQQKPGQAPRLLIYGASNRYTGIPARFSGSGSGTDFTLTISSLEPEDFAVYYCGESYGHLYTFGGGTKVEIKRTVAAPSVFIFPPSDEQLKSGTASVVCLLNNFYPREAKVQWKVDNALQSGNSQESVTEQDSKDSTYSLSSTLTLSKADYEKHKVYACEVTHQGLSSPVTKSFNRGEC
B4: PDL1a-E-LC (bispecific antibody)
heavy: not shown
light: EIVLTQSPATLSLSPGERATLSCRASENVGTYISWYQQKPGQAPRLLIYGASNRYTGIPARFSGSGSGTDFTLTISSLEPEDFAVYYCGESYGHLYTFGGGTKVEIKRTVAAPSVFIFPPSDEQLKSGTASVVCLLNNFYPREAKVQWKVDNALQSGNSQESVTEQDSKDSTYSLSSTLTLSKADYEKHKVYACEVTHQGLSSPVTKSFNRGECEPKSSDKTHTSPPSPEVQLVESGGGLVQPGGSLRLSCAASGRTFVTYGMGWFRQAPGKGREFVSAISWSGSMTSYGDSVKGRFTISRDNAKNTLYLQMNSLRPEDTAVYYCAAALGAVVYTTREPYTYWGQGTLVTVSS
B5: PDL1b-E-LC (bispecific antibody)
heavy: not shown
light: B4 light with M286S
B6: PDL1a-E-LN (bispecific antibody)
heavy: not shown
light: EVQLVESGGGLVQPGGSLRLSCAASGRTFVTYGMGWFRQAPGKGREFVSAISWSGSMTSYGDSVKGRFTISRDNAKNTLYLQMNSLRPEDTAVYYCAAALGAVVYTTREPYTYWGQGTLVTVSSEPKSSDKTHTSPPSPEIVLTQSPATLSLSPGERATLSCRASENVGTYISWYQQKPGQAPRLLIYGASNRYTGIPARFSGSGSGTDFTLTISSLEPEDFAVYYCGESYGHLYTFGGGTKVEIKRTVAAPSVFIFPPSDEQLKSGTASVVCLLNNFYPREAKVQWKVDNALQSGNSQESVTEQDSKDSTYSLSSTLTLSKADYEKHKVYACEVTHQGLSSPVTKSFNRGEC
B7: PDL1b-E-LN (bispecific antibody)
heavy: not shown
light: B6 light with M57S

Molecular target: CD47 expressed on CHO-K1 cells (UniProt Q08722 19-323)
Test: FACS

| EC50 [pM] | Binder |
| --- | --- |
| 286 | B1 |
| 349 | B2 |
| 1060 | B3 |
| 366 | B4 |
| 305 | B5 |
| 1320 | B6 |
| 1010 | B7 |
